Test results: ChEMBL document CHEMBL1146383, “Carbonic anhydrase inhibitors: inhibition of cytosolic/tumor-associated isoforms I, II, and IX with iminodiacetic carboxylates/hydroxamates also incorporating benzenesulfonamide moieties” (Bioorg Med Chem Lett, 2007)

Amino acid sequences for entries named in this document (tags omitted). A change or cut given only in a name is not applied to a line headed by its entry.
UniProt P00915: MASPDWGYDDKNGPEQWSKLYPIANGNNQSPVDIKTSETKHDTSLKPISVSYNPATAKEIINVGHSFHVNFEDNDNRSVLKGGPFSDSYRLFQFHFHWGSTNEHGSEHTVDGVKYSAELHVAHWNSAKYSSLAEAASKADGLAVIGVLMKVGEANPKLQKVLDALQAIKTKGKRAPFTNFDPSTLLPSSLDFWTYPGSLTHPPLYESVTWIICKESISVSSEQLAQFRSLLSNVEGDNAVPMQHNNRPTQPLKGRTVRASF

Key:
[1] = target: Carbonic anhydrase 9 (Homo sapiens) (UniProt Q16790)
[2] = target: Carbonic anhydrase 2 (Homo sapiens) (UniProt P00918)
Homo sapiens = organism: Homo sapiens; assay: Selectivity for human recombinant CA9 over human recombinant CA2
[3] = target: Carbonic anhydrase 1 (Homo sapiens) (UniProt P00915)

Kinact [1]	Kinact [2]	Selectivity ratio (Homo sapiens)	Kinact [3]	SMILES
13 nM	35 nM	2.69	2490 nM	NS(=O)(=O)c1ccc(CCNC(=O)CN(CC(=O)NO)S(=O)(=O)c2ccc(-c3ccccc3)cc2)cc1
12 nM	65 nM	5.41	95 nM	NS(=O)(=O)c1ccc(CCNC(=O)CN(CC(=O)NO)S(=O)(=O)c2ccc(Oc3ccccc3)cc2)cc1
